These results are taken from publication PMC4628094, “In Vitro Assessment of Uptake and Lysosomal Sequestration of Respiratory Drugs in Alveolar Macrophage Cell Line NR8383” (Pharmaceutical Research, 2015).

The nature of one series: in vitro. Conditions: rat.
Series [1] is described as follows: Accumulation (Kp) in NR8383 over a concentration range, two-site binding model. The note with it: rat, NR8383 cells.
Series [2] deals with NR8383 cells. The series is described as above. Conditions: NR8383, 37°C, concentration range, two-site binding model, control.
Series [3] concerns NR8383 cells. The note with it: rat, 10 min, 5 μM.
Series [4] can be described thus: Drug uptake in NR8383 at 37 and 4°C (CLuptake, CLdiff, Kp). The note with it: rat, NR8383 cells, Kp (cell-to-medium concentration ratio), NR8383, 5 μM, 37°C, 10 min.
The test system of series [5] is NR8383 cells. The series is described as above.
Series [6] has as its system Liver tissue slices from male Wistar rats. Further details: method as in ref (5) (a number printed in a supplementary file, which may have a reference list of its own: not looked up in the article's list). The note with it: NH4Cl 20 mM, drug 5 µM, 60 min, ref (5); cited from earlier work.

Structures are written as SMILES.

`CC[C@H]1OC(=O)[C@H](C)[C@@H](O[C@H]2C[C@@](C)(OC)[C@@H](O)[C@H](C)O2)[C@H](C)[C@@H](O[C@@H]2O[C@H](C)C[C@H](N(C)C)[C@H]2O)[C@](C)(OC)C[C@@H](C)C(=O)[C@H](C)[C@@H](O)[C@]1(C)O` [Clarithromycin]: the Kp at 10 min, 20 µM in the series “in vitro” (Kp + NH4Cl) amounted to 14.2 ± 4.44; in “in vitro” (Kp Control), 58.2 ± 11.6. In addition, the results for the Kp at 10 min, 5 μM (in “in vitro” (Kp Control); in series [4]) were 82.7 ± 27.3 and 82, respectively. For the same compound, the Kp at 10 min came out at 69 in series [1] (Kp,max, sum of Kp,U1,max and Kp,min, control); 24 in series [1] (Kp,min, NR8383, 37°C, concentration range, two-site binding model, control); 4.7 in series [1] (with NH4Cl 20 mM, Kp,min, in the presence of NH4Cl (20 mM), 1–100 μM); 14.4 in series [1] (with NH4Cl 20 mM, mean maximum fitted Kp, in the presence of NH4Cl (20 mM)). The “Kp,min” value with NR8383 cells [2] turned out to be 24.2 ± 2.06. The “fold decrease in Kp in the presence of NH4Cl relative to control” value in the series with NR8383 cells [3] came to 6 fold. In the series with NR8383 cells [5] (NR8383, 5 μM substrate, 4°C), the “CLdiff (passive diffusion clearance)” value was “Negligible”. In the series on NR8383 cells [5] (NR8383, 5 μM, 37°C, 10 min), the “Kp (cell-to-medium concentration ratio)” value is recorded as 81.6 ± 22.8.
In the case of `CN[C@H]1CC[C@@H](c2ccc(Cl)c(Cl)c2)c2ccccc21` [Sertraline], the “Reduction in total uptake (%)” value in series [6] is 20%.
